Measurements from patent US20160257676A1, “Aminoisoquinoline Derivatives as Protein Kinase Inhibitors” (ETERNITY BIOSCIENCE INC., priority 2012, published 2016).

By UniProt entry, the sequences of proteins in these tests, tags left out.
UniProt P15056, whole entry V600E: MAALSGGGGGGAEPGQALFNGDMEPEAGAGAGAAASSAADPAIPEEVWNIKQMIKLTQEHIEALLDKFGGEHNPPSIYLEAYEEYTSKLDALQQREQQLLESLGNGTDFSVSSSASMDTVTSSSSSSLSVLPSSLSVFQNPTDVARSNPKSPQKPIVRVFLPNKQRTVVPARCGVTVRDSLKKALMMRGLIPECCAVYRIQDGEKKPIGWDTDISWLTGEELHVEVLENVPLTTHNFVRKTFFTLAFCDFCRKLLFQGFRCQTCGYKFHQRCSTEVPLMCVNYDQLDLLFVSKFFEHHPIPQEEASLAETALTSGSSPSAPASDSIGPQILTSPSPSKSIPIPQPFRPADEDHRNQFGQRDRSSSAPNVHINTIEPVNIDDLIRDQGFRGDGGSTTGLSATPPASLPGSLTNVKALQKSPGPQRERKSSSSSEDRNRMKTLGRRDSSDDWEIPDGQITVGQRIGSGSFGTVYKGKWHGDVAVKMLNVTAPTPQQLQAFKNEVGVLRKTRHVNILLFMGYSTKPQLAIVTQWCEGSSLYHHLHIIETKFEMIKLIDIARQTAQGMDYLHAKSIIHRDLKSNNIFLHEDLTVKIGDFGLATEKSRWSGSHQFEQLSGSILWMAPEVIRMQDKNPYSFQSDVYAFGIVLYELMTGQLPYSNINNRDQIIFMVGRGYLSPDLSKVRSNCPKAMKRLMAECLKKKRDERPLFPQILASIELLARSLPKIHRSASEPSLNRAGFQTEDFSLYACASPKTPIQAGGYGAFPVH

Target: BRAF^V600E (Homo sapiens, UniProt P15056, V600E)
Test: BRAF^V600E enzymatic activity assay (LanthaScreen kinase assay kit, TR-FRET)
Settings: read-out: BRAF^V600E Lantha IC50; BRAF^V600E 20 ng/mL, ATP 2 μM, Fluorescein-MAP2K1 0.4 μM, room temperature, 60 minutes

| Structure (SMILES) | IC50 [nM] |
| --- | --- |
| CCCS(=O)(=O)Nc1ccc(F)c(-c2cc3cnc4[nH]nc(C5CC5)c4c3cc2OC)c1F [Example 23, N-(3-(1-cyclopropyl-8-methoxy-3H-pyrazolo[3,4-c]isoquinolin-7-yl)-2,4-difluorophenyl)propane-1-sulfonamide] | 220 |
| COc1cc2c(cnc3[nH]nc(C4CC4)c32)cc1-c1c(F)ccc(NS(=O)(=O)CCCF)c1Cl [Example 25, N-(2-chloro-3-(1-cyclopropyl-8-methoxy-3H-pyrazolo[3,4-c]isoquinolin-7-yl)-4-fluorophenyl)-3-fluoropropane-1-sulfonamide] | 7 |
